Laboratory results published in patent US8410310B2, “Trypsin-like serine protease inhibitors, and their preparation and use” (The Medicines Company (Leipzig) GmbH, priority 2006, dated 2013).

Amino acid sequences for entries named in this document (tags omitted). Residues count along the entry.
UniProt P03952, 391-638 limits assumed: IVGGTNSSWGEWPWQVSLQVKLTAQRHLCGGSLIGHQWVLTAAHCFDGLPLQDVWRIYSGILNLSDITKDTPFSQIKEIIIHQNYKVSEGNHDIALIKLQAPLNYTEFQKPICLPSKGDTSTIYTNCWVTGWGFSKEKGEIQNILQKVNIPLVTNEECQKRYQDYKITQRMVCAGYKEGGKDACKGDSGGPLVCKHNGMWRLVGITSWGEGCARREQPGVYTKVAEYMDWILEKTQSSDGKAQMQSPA
UniProt P03952, 20-390 partner limits assumed: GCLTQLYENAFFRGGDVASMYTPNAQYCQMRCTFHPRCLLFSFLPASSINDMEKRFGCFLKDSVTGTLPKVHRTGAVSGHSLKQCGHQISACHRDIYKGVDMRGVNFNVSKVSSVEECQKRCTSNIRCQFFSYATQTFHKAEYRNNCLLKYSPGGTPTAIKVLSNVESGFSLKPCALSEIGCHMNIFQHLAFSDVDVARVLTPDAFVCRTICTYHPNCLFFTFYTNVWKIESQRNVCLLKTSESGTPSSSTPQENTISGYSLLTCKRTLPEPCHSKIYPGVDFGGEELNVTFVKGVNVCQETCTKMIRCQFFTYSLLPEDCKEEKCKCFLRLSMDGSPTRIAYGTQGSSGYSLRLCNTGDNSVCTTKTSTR
UniProt P00742, 41-179 limits assumed: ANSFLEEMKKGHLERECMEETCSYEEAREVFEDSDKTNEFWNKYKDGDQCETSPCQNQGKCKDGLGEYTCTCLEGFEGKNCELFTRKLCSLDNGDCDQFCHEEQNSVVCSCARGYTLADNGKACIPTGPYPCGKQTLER
UniProt P00742, 235-488 limits assumed: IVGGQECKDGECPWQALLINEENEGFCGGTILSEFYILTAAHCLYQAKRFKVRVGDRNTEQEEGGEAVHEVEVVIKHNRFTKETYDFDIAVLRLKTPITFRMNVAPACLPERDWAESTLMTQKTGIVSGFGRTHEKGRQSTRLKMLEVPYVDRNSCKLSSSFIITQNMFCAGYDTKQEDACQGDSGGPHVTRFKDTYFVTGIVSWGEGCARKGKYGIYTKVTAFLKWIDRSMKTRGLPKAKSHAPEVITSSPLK
UniProt P00747, 581-810 limits assumed: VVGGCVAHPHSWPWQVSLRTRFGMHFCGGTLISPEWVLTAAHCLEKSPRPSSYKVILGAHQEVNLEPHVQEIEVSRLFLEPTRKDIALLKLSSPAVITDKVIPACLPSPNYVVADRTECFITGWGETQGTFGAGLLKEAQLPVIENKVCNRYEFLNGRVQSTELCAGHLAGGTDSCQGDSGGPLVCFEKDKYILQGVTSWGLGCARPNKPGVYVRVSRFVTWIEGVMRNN
UniProt P00747, 97-580 partner limits assumed: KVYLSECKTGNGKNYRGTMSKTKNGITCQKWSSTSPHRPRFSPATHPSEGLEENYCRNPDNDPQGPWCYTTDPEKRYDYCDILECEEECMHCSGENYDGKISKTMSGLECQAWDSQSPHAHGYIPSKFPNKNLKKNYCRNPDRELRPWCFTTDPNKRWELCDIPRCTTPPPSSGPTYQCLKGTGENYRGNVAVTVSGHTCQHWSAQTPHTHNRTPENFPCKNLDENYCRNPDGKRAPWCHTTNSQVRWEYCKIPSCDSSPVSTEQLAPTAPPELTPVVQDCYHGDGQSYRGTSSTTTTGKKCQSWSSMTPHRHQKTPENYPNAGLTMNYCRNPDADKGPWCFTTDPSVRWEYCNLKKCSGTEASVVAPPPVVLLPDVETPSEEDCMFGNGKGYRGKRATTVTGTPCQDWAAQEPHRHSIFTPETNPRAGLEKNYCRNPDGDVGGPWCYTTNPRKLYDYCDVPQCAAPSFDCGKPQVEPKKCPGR

What was measured:
[1] = molecular target: plasma kallikrein (Homo sapiens, UniProt P03952); test: Determination of inhibition constants for PK; details: read-out: PK [Ki]; 25° C., substrate S2302, pH 8.0
[2] = molecular target: Thrombin (Homo sapiens, UniProt P00734); test: Determination of inhibition constants for thrombin; details: read-out: Thrombin [Ki]
[3] = molecular target: Xa (Homo sapiens, UniProt P00742); test: Determination of inhibition constants for Xa; details: read-out: Xa [Ki]
[4] = molecular target: plasmin (Homo sapiens, UniProt P00747); test: Determination of inhibition constants for plasmin; details: read-out: Plasmin [Ki]; 25° C., substrate Chromozym PL, pH 8.0

Structure (SMILES): N=C(N)c1ccc(CNC(=O)[C@H](Cc2cccc(CN)c2)NC(=O)[C@@H](CCCc2ccccc2)NS(=O)(=O)Cc2cccc(C(=O)O)c2)c(F)c1
- Ki [1]: < 10 nM
- Ki [2]: > 1000 nM
- Ki [3]: < 100 nM
- Ki [4]: < 10 nM

Structure (SMILES): N=C(N)c1ccc(CNC(=O)[C@H](Cc2cccc(CN)c2)NC(=O)[C@@H](CCCc2ccccc2)NS(=O)(=O)Cc2ccccc2)cc1
- Ki [1]: < 10 nM
- Ki [2]: < 1000 nM
- Ki [3]: < 100 nM
- Ki [4]: < 10 nM

Structure (SMILES): CC(C)(C)OC[C@@H](NS(=O)(=O)Cc1ccccc1)C(=O)N[C@@H](Cc1ccc(C(=N)N)cc1)C(=O)NCc1ccc(C(=N)N)cc1
- Ki [1]: < 100 nM
- Ki [2]: < 1000 nM
- Ki [3]: < 1000 nM
- Ki [4]: < 100 nM
